The record followed here is ChEMBL document CHEMBL4808148, “HDAC6 screening dataset using tau-based substrate in an enzymatic assay yields selective inhibitors and activators” (2021).

The target in assay [1] is T1, Protein deacetylase HDAC6 (Homo sapiens) (UniProt Q9UBN7).
T1 sequence (whole entry): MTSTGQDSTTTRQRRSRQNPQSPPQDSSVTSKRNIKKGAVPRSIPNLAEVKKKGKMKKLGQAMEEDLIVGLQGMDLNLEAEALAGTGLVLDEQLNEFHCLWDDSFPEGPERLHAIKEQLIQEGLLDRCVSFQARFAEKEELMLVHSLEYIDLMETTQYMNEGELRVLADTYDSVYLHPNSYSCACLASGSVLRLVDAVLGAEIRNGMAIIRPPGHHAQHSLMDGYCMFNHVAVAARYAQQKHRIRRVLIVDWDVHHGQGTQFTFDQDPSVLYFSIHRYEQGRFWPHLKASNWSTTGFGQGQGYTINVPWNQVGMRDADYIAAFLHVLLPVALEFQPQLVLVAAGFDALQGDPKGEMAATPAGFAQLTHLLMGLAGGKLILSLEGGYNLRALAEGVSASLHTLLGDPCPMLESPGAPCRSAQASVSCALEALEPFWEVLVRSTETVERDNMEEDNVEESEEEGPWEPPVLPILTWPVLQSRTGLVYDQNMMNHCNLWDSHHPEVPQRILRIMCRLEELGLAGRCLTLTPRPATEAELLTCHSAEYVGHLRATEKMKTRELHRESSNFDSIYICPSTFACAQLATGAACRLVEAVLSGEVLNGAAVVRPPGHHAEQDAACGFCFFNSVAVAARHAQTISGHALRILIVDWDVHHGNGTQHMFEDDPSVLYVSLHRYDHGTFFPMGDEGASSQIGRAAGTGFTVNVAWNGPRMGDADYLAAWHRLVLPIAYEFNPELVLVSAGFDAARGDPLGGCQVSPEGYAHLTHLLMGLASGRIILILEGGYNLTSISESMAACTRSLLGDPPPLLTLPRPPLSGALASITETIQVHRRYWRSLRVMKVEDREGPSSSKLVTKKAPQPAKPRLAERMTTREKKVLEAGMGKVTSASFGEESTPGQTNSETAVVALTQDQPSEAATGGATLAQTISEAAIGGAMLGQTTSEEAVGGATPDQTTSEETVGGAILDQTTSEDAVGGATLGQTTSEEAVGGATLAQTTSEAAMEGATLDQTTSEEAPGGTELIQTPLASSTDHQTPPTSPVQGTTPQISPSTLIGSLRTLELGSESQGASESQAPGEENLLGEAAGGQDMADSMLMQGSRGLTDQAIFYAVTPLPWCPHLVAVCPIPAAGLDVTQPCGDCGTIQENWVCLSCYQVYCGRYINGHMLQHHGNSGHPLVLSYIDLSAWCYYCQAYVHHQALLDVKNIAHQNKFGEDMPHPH
To be noted: at 10 µM.

Assay [2] concerns the target T1, Protein deacetylase HDAC6 (Homo sapiens). The settings on record: at 10 µM. The source holds these as a separate data set.

The entries are a selection whose mix differs from that of the whole data set.

On to `CCC(CO[N+](=O)[O-])(CO[N+](=O)[O-])CO[N+](=O)[O-]`, for which the inhibition was 14.1% in assay [1] and 1.36% in assay [2].
For `CN(C)CCS`, in that order: -8.55% and 1.8%.
